The values that follow come from patent US20150307938A1, “METHOD TO IDENTIFY A NOVEL CLASS OF IMMUNOLOGIC ADJUVANTS” (Lancell, L.L.C., priority 2011, published 2015).

The subject of this experiment is skin. As to the kind of experiment: Affymetrix microarray of skin, DBP-4 hr and analogs vs. untreated; gene selection by log-2 fold change, Wilcoxon, Kendall tau (Tables 8, 9). It counts as in vivo, mouse. To be noted: skin gene expression, DBP-4 hr vs. untreated; gene (probe) named in the table row; Yes = among genes selected by log-2 fold change.

For the compound `CCCCOC(=O)c1ccccc1C(=O)OCCCC` [DBP, dibutylphthalate], the “≧2-Fold change” value is listed as “No”.
